Compounds with a hit are over-represented: about 1.2% of the library has one in this group of screens.
DSG3 Ab inh = blocks pemphigus antibody binding to human desmoglein-3; DSG3-coupled beads, scFv-anti-DSG3-GFP binding, flow cytometry; hits give low values; binding (percent of control), % at 10 µM; 0.48% of 310,000 active; AID 588358;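 active = binding more than 3 SD below its plate's average and above zero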;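 also: hits lower antibody fragment binding to DSG3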
Rce1 inh = yeast Ras-converting enzyme inhibition; Q03530; yeast membranes, quenched prenylated peptide cleavage fluorescence; calls only; 0.27% of 290,000 active;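 active = fall in fluorescence gain of 50% or more versus controls, with final raw signal at or below 3038400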;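 also: plate controls were neutral control wells for no effect and wells lacking membranes for full effect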
Arrestin-AP2 inh = human beta-arrestin and AP2 interaction inhibition. FITC-arrestin peptide / GST-AP2 beads, flow cytometry; AP2 beta2 appendage carries R879A mutation. inhibition, % at 10 µM. 0.31% of 340,000 active;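 active = inhibition above a set limit, near 3 SD of compounds lacking own fluorescence, cut at about 54% in these data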;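 also: plate controls were DMSO wells for no effect and 5 µM unlabelled arrestin peptide for full effect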
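Material – AP2 appendage R879A on GSH beads · Buffer or medium – PBS with 0.05% Tween 20 and 0.1% BSA · Probe or stimulus – fluorescein-tagged arrestin peptide at 50 nM final · Incubation – compound with beads 12 min RT, then probe 1 h RT · Detection – high-throughput flow cytometry of beads, ex 488, em 535 nm · Evaluation – percent response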
Tb MetRS inh = Trypanosoma brucei MetRS inhibition | purified T. brucei MetRS, ATP depletion, Kinase-Glo luminescence | inhibition, % at 11.9 µM | 0.4% of 360,000 active;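 active = inhibition above a per-plate cutoff of the control wells' mean inhibition plus 3 SD, cut at about 5.5% in these data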;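 also: 0% = DMSO wells median and 100% = median of wells with control inhibitor compound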
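Measured by: Kinase-Glo luciferase luminescence reporting remaining unconsumed ATP. Material: purified T. brucei MetRS enzyme. Doses: 11.9 µM compound single dose, 0.9% DMSO. Medium: HEPES buffer containing pyrophosphatase, BSA, spermine, DTT. Times: 15 min preincubation, 2 h reaction, all 25 °C. Reagent: methionine, ATP and bulk E. coli tRNA.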
Yeast UUG start = yeast start codon fidelity modulation; activity score, % at 18.7 µM; actives 0.13% (n = 350,000); S. cerevisiae UUG-firefly luciferase reporter, luminescence/redox ratio; AID 602363;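 active means replicate mean at a twofold rise or more, about +100% in these data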;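 further: firefly luciferase made from a UUG start codon reports start codon fidelity; reporter light over untreated wells divided by growth signal over untreated wells; some hits fall short of that in this replicate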
Arr-AP2 CP1 = human beta-arrestin and AP2 interaction inhibition, cherry pick | 2% of 1,300 active | shares compounds with Arrestin-AP2 inh | inhibition, % at 10 µM | GST-AP2 beads, FITC arrestin peptide binding, flow cytometry; GST-fused beta2-adaptin appendage, R879A mutant | AID 504908;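 active = inhibition above a set limit, roughly 3 SD of non-fluorescent compound noise, cut at about 38% in these data; inactive = inhibition at or below that limit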;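 also: loss of bead fluorescence from 50 nM FITC arrestin peptide bound to appendage; 0% = negative control wells and 100% = excess unlabelled arrestin peptide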
GST-FITC bead = GST-GSH bead binding interference, counter-screen; 2% of 1,300 active; inhibition, % at 10 µM; GST-fluorescein binding to GSH beads, fluorescence; shares compounds with Arrestin-AP2 inh;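 active = inhibition above 50%, about 3 SD of the inhibition seen with non-fluorescent compounds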;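 also: fluorescein maleimide labelled GST captured on 4 micron glutathione beads; higher means more loss of bead fluorescence from quenching or blocked binding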
* = called active by the depositor; i = inactive; · = no result given.

entry | SMILES | DSG3 Ab inh | Rce1 inh | Arrestin-AP2 inh | Tb MetRS inh | Yeast UUG start | Arr-AP2 CP1 | GST-FITC bead
1 | COc1cccc(C(=O)Nc2ccc(NC(=O)c3ccco3)c(Cl)c2)c1 | 111 | i | 56* | -1 | · | 1 | -6
2 | COc1cccc(NC(=O)c2cccc(NC(=O)c3ccco3)c2)c1 | 106 | · | · | 0 | -9 | · | ·
3 | CCNC(=O)C[C@@H]1CC[C@@H](NC(=O)C2CC2)[C@H](CO)O1 | · | · | · | · | 6 | · | ·
4 | O=C(Cc1ccccc1C(=O)O)Nc1cccc2ccccc12 | · | · | 60* | 0 | 5 | 6 | -4
5 | COc1ccc(NC(=O)CCCCn2c(=O)[nH]c3ccccc3c2=O)cc1 | 102 | i | 5 | 2 | -5 | -3 | -3
6 | COc1ccc(NC(=O)CCCn2c(=O)[nH]c3ccccc3c2=O)cc1 | 101 | i | 9 | -1 | -3 | -14 | -6
7 | O=C(CCn1c(=S)[nH]c2ccccc2c1=O)Nc1ccc(F)cc1 | 83 | i | 74* | 0 | · | 14 | 84*
8 | O=C(c1ccc2c(c1)OCO2)N1CC[C@@H]2[C@@H](CO)Nc3ccc(-c4ccccc4)cc3[C@@H]21 | · | · | · | · | 16 | · | ·
9 | O=C(Nc1ccc(F)cc1)N(CCCN1CCOCC1)Cc1cc2cc3c(cc2[nH]c1=O)OCO3 | 109 | i | 68* | 1 | · | -7 | -6
10 | COc1cc2cc(CN(C(=O)NC3CCCCC3)C3CCCC3)c(=O)[nH]c2cc1OC | 92 | i | 6 | -2 | · | · | ·
11 | COc1ccc(CN(Cc2cc3cc(OC)c(OC)cc3[nH]c2=O)C(=O)NC2CCCCC2)cc1 | 104 | · | 2 | 0 | -1 | 9 | -3
12 | O=C(Nc1ccc(F)cc1)N(CCCN1CCOCC1)Cc1cc2cc3c(cc2[nH]c1=O)OCCO3 | 101 | i | 12 | -1 | 8 | · | ·
13 | COc1ccc(NC(=O)N(CCN2CCCC2)Cc2cc3cc(OC)c(OC)cc3[nH]c2=O)cc1 | 126 | i | 87* | 0 | -4 | 5 | -8
14 | COC(=O)Cc1ccc(NC(=S)N2CCCCC2C)cc1 (stereo not given) | 105 | i | 57* | -1 | -16 | -10 | 3
15 | COC(=O)Cc1ccc(NC(=S)N2CCN(C)CC2)cc1 | 86 | i | -4 | 0 | · | · | ·
16 | Cc1cc(OC(C)C(=O)NCc2ccncc2)c2c(C)cc(=O)oc2c1 (stereo not given) | 94 | i | 16 | 0 | 11 | · | ·
17 | CCCCc1cc(=O)oc2cc(C)cc(OC(C)C(=O)NCc3ccncc3)c12 (stereo not given) | 98 | i | 67* | 0 | · | -6 | -5
18 | Cc1ccc(NS(=O)(=O)c2ccc3c(c2)OCCCO3)cc1S(=O)(=O)N1CCOCC1 | 100 | · | 58* | 0 | 4 | 1 | -1
19 | CC1CC(C)CN(CCCNC(=O)c2cc3c(=O)[nH]c4ccccc4c3n2C)C1 (stereo not given) | 98 | i | 60* | -1 | · | -8 | -12
20 | Cc1cc2nc(-c3ccc(NC(=O)C(C)C)cc3)oc2cc1C | 111 | i | 60* | -1 | · | -10 | 0
21 | CC12CCC(=O)N1C(C(=O)OCC(=O)Nc1cc(S(=O)(=O)N3CCCCC3)ccc1Cl)CS2 (stereo not given) | 100 | i | -2 | 0 | · | · | ·
22 | CC12CCC(=O)N1C(C(=O)OCC(=O)Nc1sccc1C#N)CS2 (stereo not given) | 108 | i | -6 | -1 | -15 | · | ·
23 | CCCCOC(=O)c1ccc(NC(=O)COC(=O)C2CSC3(C)CCC(=O)N23)cc1 (stereo not given) | 94 | i | 2 | 0 | · | -11 | -6
24 | CN(C)S(=O)(=O)c1cc(NC(=O)COC(=O)C2CSC3(C)CCC(=O)N23)ccc1Cl (stereo not given) | 104 | i | 8 | 0 | 7 | -5 | -10
25 | CC(C)NC(=O)N[C@H]1CC[C@@H](CCNC(=O)C2CCC2)O[C@H]1CO | · | · | · | · | -4 | · | ·
26 | C[C@@H]1CN([C@@H](C)CO)C(=O)c2cc(NS(=O)(=O)c3ccc(Cl)cc3)ccc2O[C@H]1CN(C)Cc1ccc2c(c1)OCO2 | · | · | · | · | 7 | · | ·

Sorted by molar mass (highest first): some entries from above
entry | SMILES | DSG3 Ab inh | Rce1 inh | Arrestin-AP2 inh | Tb MetRS inh | Yeast UUG start | Arr-AP2 CP1 | GST-FITC bead
21 | CC12CCC(=O)N1C(C(=O)OCC(=O)Nc1cc(S(=O)(=O)N3CCCCC3)ccc1Cl)CS2 (stereo not given) | 100 | i | -2 | 0 | · | · | ·
24 | CN(C)S(=O)(=O)c1cc(NC(=O)COC(=O)C2CSC3(C)CCC(=O)N23)ccc1Cl (stereo not given) | 104 | i | 8 | 0 | 7 | -5 | -10
22 | CC12CCC(=O)N1C(C(=O)OCC(=O)Nc1sccc1C#N)CS2 (stereo not given) | 108 | i | -6 | -1 | -15 | · | ·
20 | Cc1cc2nc(-c3ccc(NC(=O)C(C)C)cc3)oc2cc1C | 111 | i | 60* | -1 | · | -10 | 0

Screening results deposited in PubChem BioAssay by several laboratories.
